Experimental data taken from patent US20060004197A1, “Sulfonamide-based compounds as protein tyrosine kinase inhibitors” (priority 2004, published 2006).

Amino acid sequences for entries named in this document (tags omitted). Residues count along the entry.
UniProt P12931, whole entry: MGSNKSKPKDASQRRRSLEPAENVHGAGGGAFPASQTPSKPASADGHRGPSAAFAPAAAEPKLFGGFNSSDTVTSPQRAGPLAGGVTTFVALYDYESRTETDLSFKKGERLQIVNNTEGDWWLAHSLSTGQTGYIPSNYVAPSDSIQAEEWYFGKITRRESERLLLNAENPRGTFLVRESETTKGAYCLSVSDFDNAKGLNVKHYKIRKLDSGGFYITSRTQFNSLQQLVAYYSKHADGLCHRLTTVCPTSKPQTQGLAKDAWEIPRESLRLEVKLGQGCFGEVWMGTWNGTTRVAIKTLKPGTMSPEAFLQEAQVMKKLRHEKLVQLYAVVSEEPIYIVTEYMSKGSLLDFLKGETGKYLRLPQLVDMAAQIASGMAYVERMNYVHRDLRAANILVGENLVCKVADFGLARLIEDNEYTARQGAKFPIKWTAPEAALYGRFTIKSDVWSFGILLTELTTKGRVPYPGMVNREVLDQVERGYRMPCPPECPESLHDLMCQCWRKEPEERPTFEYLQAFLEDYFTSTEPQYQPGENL
UniProt P41240, whole entry: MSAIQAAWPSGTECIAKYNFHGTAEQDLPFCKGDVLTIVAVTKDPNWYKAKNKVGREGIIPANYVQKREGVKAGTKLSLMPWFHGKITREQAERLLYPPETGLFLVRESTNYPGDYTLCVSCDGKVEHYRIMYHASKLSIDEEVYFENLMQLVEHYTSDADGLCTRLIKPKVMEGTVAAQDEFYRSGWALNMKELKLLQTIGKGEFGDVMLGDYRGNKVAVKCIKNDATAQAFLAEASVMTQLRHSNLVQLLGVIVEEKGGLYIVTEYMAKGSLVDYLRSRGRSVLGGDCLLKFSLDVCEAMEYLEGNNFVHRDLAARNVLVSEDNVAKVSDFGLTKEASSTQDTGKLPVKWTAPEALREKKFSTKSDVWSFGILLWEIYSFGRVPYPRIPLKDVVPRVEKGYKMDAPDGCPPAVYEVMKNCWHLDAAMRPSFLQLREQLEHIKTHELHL
UniProt P11362, 22-822 limits assumed: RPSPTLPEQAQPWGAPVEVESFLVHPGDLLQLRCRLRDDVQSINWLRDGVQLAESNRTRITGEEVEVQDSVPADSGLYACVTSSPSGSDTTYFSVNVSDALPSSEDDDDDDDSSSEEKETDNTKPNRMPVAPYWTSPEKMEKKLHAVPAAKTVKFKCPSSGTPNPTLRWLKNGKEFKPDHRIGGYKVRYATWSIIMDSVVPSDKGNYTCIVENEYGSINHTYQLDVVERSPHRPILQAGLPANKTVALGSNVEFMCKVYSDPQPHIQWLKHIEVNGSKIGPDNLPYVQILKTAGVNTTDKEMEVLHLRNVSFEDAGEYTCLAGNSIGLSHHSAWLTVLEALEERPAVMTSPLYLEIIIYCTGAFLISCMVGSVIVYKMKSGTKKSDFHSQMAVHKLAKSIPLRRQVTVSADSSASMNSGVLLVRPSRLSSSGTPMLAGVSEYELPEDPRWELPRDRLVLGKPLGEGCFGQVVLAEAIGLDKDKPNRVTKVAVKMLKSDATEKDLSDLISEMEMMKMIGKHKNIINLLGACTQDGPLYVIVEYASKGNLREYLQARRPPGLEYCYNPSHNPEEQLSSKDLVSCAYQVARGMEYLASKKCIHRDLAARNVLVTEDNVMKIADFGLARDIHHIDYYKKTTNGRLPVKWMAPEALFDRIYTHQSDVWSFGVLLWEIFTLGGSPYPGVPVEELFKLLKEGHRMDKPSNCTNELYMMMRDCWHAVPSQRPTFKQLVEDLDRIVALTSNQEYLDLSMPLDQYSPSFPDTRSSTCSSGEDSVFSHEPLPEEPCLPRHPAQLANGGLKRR

Key:
Recombinant human Src = Recombinant human Src (Homo sapiens, UniProt P12931); test: Src tyrosine kinase activity, poly E4Y / 32P-ATP phosphorylation assay; conditions: read-out: IC50 (μM) Src; Table 3, Formula II compounds; NI = no inhibition at 100 μg/mL
Description: Recombinant human Src was expressed using the baculovirus-insect cell system and purified as published (Budde et al., 1993 and 2000). Recombinant Csk and the FGF receptor (FGFr) were expressed as […] fusion proteins using the pGEX expression vector and E. coli, and purified as described (Sun & Budde, 1995).
The tyrosine kinase activity of Src, Csk and FGFr was determined using poly E4Y and ^32P-ATP. Briefly, enzymes were assayed in a reaction mixture consisting of 0.15 M EPPS-NaOH (pH 8.0) with 6 mM MgCl2, 0.2 mM γ^32P-ATP (0.2-0.4 mCi/μmol), 10% glycerol, 0.1% Triton X-100, and poly E4Y. Poly E4Y is a synthetic peptide whose phosphorylation is measured in this assay by the addition of the radioactively labeled phosphate from the ATP (Budde et al., 1995). For screening assays, 50 μg/ml poly E4Y was used, and for Ki determinations variable concentrations (0, 20, 30, 75, and 150 μg/ml) of poly E4Y were used. When ATP was varied (0, 50, 100 and 250 μM), poly E4Y was kept constant at 150 μg/ml. […]

Recombinant Csk = Recombinant Csk (Homo sapiens, UniProt P41240); test: Csk tyrosine kinase activity, poly E4Y / 32P-ATP phosphorylation assay; conditions: read-out: IC50 (μM) Csk; Table 3, Formula II compounds; NI = no inhibition at 100 μg/mL
Description: (§1) The tyrosine kinase activity of Src, Csk and FGFr was determined using poly E4Y and ^32P-ATP. Briefly, enzymes were assayed in a reaction mixture consisting of 0.15 M EPPS-NaOH (pH 8.0) with 6 mM MgCl2, 0.2 mM γ^32P-ATP (0.2-0.4 mCi/μmol), 10% glycerol, 0.1% Triton X-100, and poly E4Y. Poly E4Y is a synthetic peptide whose phosphorylation is measured in this assay by the addition of the radioactively labeled phosphate from the ATP (Budde et al., 1995). For screening assays, 50 μg/ml poly E4Y was used, and for Ki determinations variable concentrations (0, 20, 30, 75, and 150 μg/ml) of poly E4Y were used. When ATP was varied (0, 50, 100 and 250 μM), poly E4Y was kept constant at 150 μg/ml.

FGF receptor (FGFr) = FGF receptor (FGFr) (UniProt P11362); test: FGFr tyrosine kinase activity, poly E4Y / 32P-ATP phosphorylation assay; conditions: read-out: IC50 (μM) FGFr; Table 3, Formula II compounds; NI = no inhibition at 100 μg/mL
Description: as §1

IC50 (Recombinant human Src): 9 µM
IC50 (Recombinant Csk): 118 µM
IC50 (FGF receptor (FGFr)): 24 µM
Structure (SMILES): Cc1ccc(S(=O)(=O)Nc2ccc(Oc3ccc(C(=O)O)cc3)cc2NS(=O)(=O)c2ccc(C)cc2)cc1
